The conditions of this data set: 0.1 N acetic solution (pH 2.0).

For the substance insulin, the “insulin dissolved up to (solubility)” value is recorded as “approximately 254 IU/0.3 ml”.

Source of the values: patent US7087246B2, “Controlled release preparation of insulin and its method” (Mi Tech Company Limited, priority 2000, dated 2006).
